Measurements: doi:10.1101/2022.04.21.489129

Target: wild-type HIV-1AD8 envelope glycoprotein (Env) trimer on virions (HIV-1 (strain AD8) | HIV-1 (strain NL4-3))
Assay: co-IP

Work on “soluble CD4-Ig (from UniProt P01730 26-396) (Fc fusion)” yielded a pEC50 of 7.60.

pEC50: −log10 of the molar value.
